# Test results taken from ChEMBL document CHEMBL4402517, “Rational modification of Mannich base-type derivatives as novel antichagasic compounds: Synthesis, in vitro and in vivo evaluation” (Bioorg Med Chem, 2019).
# How the values were obtained:
# [1] = Mutagenecity against Salmonella typhimurium TA1535 assessed as number of colonies in presence of Sprague-Dawley rat S9 with metabolic activation measured after 48 hrs by Ames test ( Rvb = 5 +/- 3.6); settings: salmonella enterica subsp. enterica serovar typhimurium, s9, 48 h
# [2] = Mutagenecity against Salmonella typhimurium TA1535 assessed as number of colonies in absence of Sprague-Dawley rat S9 with metabolic activation measured after 48 hrs by Ames test ( Rvb = 13.3 +/- 2.5); settings: salmonella enterica subsp. enterica serovar typhimurium, s9, 48 h
smiles,measurement,setting,value
[N-]=[N+]=N.[Na+],Activity,[1],96
same,Activity,[2],235
